# Reference: PubChem BioAssay AID588809 (National Center for Advancing Translational Sciences (NCATS), 2011)
# Amino acid sequences for entries named in this document (tags omitted). A change or cut given only in a name is not applied to a line headed by its entry.
# UniProt Q9UIF8: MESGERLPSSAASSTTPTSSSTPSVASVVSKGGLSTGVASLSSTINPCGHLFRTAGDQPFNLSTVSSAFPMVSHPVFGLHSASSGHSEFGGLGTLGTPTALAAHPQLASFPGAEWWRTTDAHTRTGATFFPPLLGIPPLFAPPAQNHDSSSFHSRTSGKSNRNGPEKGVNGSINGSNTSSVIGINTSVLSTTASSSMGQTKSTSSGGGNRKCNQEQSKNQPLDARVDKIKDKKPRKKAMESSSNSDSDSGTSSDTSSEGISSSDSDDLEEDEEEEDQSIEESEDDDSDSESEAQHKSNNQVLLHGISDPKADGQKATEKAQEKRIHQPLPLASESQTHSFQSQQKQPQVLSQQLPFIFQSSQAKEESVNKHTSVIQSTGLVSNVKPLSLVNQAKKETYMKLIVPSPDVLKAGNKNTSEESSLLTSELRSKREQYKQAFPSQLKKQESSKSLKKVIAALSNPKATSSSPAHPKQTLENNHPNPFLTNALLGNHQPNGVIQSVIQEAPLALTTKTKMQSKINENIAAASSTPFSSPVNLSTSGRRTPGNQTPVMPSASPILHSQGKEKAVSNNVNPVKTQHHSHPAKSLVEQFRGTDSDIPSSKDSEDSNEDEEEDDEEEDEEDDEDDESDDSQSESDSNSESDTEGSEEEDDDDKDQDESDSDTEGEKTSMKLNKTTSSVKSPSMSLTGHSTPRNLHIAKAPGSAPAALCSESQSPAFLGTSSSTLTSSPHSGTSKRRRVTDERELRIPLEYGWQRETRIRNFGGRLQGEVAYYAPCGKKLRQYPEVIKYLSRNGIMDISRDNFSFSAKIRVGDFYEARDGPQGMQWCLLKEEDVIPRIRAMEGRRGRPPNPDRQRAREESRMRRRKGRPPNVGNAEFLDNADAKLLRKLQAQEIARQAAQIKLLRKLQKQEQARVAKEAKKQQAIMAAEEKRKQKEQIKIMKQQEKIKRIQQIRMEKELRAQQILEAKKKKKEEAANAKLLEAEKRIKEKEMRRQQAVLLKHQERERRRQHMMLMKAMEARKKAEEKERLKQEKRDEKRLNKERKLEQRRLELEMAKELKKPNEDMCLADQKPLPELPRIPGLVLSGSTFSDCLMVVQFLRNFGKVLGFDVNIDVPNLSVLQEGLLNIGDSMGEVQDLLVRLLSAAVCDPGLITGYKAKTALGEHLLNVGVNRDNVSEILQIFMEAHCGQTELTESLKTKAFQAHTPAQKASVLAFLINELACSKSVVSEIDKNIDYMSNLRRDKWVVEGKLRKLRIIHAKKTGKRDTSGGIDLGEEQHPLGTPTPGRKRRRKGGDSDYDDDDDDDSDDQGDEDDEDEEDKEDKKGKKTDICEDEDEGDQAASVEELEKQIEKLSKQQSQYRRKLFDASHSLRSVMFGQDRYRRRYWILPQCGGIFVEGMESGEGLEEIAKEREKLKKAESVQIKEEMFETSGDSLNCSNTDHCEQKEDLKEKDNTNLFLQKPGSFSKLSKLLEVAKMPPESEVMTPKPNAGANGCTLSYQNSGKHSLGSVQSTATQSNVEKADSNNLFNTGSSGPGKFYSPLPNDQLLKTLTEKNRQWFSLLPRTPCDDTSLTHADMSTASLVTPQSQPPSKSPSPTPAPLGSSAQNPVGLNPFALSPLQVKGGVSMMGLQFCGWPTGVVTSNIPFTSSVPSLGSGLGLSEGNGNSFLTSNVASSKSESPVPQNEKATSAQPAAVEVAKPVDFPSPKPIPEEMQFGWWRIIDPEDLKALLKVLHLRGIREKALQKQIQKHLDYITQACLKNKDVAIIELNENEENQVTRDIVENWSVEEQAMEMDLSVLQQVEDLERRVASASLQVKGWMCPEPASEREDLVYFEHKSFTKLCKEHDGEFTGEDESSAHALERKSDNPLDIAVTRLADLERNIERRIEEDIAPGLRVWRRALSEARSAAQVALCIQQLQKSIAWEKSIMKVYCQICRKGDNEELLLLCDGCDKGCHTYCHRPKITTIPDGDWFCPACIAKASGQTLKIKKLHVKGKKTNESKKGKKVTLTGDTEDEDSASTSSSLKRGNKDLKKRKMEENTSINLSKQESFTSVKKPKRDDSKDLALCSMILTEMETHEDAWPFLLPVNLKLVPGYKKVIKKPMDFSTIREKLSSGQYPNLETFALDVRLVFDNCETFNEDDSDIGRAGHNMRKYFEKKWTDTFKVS
# This is a selection; strong and weak results do not stand in their true shares. The source made the active and inactive calls. Calls come from the whole dose curve.
# Biological target: Bromodomain adjacent to zinc finger domain protein 2B (Homo sapiens) (UniProt Q9UIF8)
# Experiment: qHTS Assay for Inhibitors of BAZ2B: Hit Validation
# Details: AlphaScreen BAZ2B / biotin-H3K14Ac peptide displacement
# Source text: BAZ2B (bromodomain adjacent to zinc finger domain, 2B) belongs to a family of ubiquitously expressed bromodomain containing proteins, which biological function has not yet been elucidated. […] The interaction of BAZ2B with ISWI mediated by the BAZ1 motif has recently been described. […] The protocol is based on the AlphaScreen (PerkinElmer) displacement assay developed by NCGC [5], but uses the peptide ligand Biot-H3K14Ac, a high affinity binding partner for BAZ2B, in an AlphaScreen format. Although AlphaScreen has significant advantages with its utility in a variety of epigenetic target assays, the primary screening data provided in this deposition should be used with caution due to the prevalence of screening artifacts. The top compound concentration tested was 110uM in this assay, which increases number of actives and potential artifacts. […] Yasgar, et al. Compound Management for Quantitative High-Throughput Screening. […] Inglese, et al. Quantitative high-throughput screening: a titration-based approach that efficiently identifies biological activities in large chemical libraries. […]
# To each well of a 1,536w plate, 2ul of BAZ2B protein (final 50nM) and 1ul biotinylated histone peptide acetylated at Lys14 [b-H3(5-23)K14Ac] […] Plates were read on an EnVision multilabel plate reader using the 1,536 plate HTS AlphaScreen aperture (excitation time 80 ms, measurement time 240 ms).
row,SMILES,Potency
1,O=P(Nc1nccs1)(c1ccccc1)c1nc2ccccc2s1 (stereo unspecified),active: 1 µM
